{
  "sequences": {"note": "Sequences of proteins named here, by UniProt entry; tags and fusion partners are left off.", "UniProt P14618, whole entry": "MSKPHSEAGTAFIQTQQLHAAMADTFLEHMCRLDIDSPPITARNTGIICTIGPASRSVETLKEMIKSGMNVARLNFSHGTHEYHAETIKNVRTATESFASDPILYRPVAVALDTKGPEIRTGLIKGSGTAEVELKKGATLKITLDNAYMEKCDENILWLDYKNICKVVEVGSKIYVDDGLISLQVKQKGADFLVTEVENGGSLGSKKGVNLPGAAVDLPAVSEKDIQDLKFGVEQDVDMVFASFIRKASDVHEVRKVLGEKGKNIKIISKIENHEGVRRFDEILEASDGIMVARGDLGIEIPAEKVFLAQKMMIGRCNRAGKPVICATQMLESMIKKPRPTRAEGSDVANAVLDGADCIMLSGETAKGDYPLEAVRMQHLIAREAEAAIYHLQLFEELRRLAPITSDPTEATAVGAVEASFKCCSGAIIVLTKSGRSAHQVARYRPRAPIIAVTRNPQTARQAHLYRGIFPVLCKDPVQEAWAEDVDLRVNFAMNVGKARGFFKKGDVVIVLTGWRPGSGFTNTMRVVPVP"},
  "source": "PubChem BioAssay AID1631",
  "about": "(National Center for Advancing Translational Sciences (NCATS), 2009)",
  "note": "This is a selection; strong and weak results do not stand in their true shares. Some structures show a salt or complex split into parts, the way the source records it. Active and inactive are the calls of the source. Calls come from the whole dose curve; as a rule, active = well fitted activation curve with a large enough effect; inconclusive = small, poorly fitted or top-dose-only effect; inactive = no such curve, though single readings can be large or run the other way. % is set by controls: 0 for no effect and ±100 for the full control effect.",
  "data": [
    {"biological_target": "Pyruvate kinase PKM (Homo sapiens) (UniProt P14618)", "assay": "qHTS Assay for Activators of Human Muscle isoform 2 Pyruvate Kinase; note: nearly all actives have a fitted effect of over 55% in size", "details": "purified PKM2, Kinase-Glo ATP luminescence, 0% is enzyme alone, no compound; at 57.5 µM (top of the series) unless noted", "description": "NIH Chemical Genomics Center [NCGC] Matthew G. Vander Heiden, M.D., Ph.D. [Harvard Medical School, 77 Avenue Louis Pasteur, Boston, MA 02115] MLPCN Grant: 1 R03 MH085679-01 NCGC Assay Overview: Human pyruvate kinase muscle 2 (hPK-M2) enzyme was supplied as a highly purified (>95% pure) preparation from Harvard Medical School and assayed for its ability to generate ATP from ADP using phosphoenolpyruvate (PEP) as a substrate. ATP generation was detected in a coupled reaction by luciferase-mediated luminescence, an ATP-dependent process. […] The enzyme was assayed at an intermediate level of activity to screen for both inhibitors and activators.\nNCGC Assay Protocol Summary: Three uL of substrate mix (at r.t.) in assay buffer (50 mM Imidazole pH7.2, 50 mM KCl, 7 mM MgCl2, 0.01% Tween 20, 0.05% BSA) was dispensed into white solid bottom 1,536 well microtiter plates so that the final concentrations of substrates in the assay were 0.1 mM ADP and 0.5 mM PEP. 23 nL of compound were delivered by a pin tool and 1 uL of enzyme mix in assay buffer (4 degree Celsius) was added. Plates were incubated at room temperature for 1 hour. Two uL of detection mix (Kinase-Glo, Promega; at 4 degree Celsius protected from light) was added and luminescence read by a ViewLux (Perkin Elmer) at 5 second exposure/plate. Data were normalized to the uninhibited and AC100 inhibition (no enzyme). To monitor activation, the first column contained a titration of the activator, NCGC00031955-01 (16-point 1:2 dilutions in duplicate starting at 57 uM) and the first 16 rows of column 4 contained 57 uM of NCGC00031955-01.", "values": [
      {"molecule": "CCCN1CCC(Nc2cc(OC)cc(OC)c2)CC1", "activation": "inactive: -0.216% [at 11.5 µM]"},
      {"molecule": "c1ccc(CN2CCC(Nc3ccccc3)CC2)cc1", "activation": "inactive: -7.64%"},
      {"molecule": "CCOC(=O)C(CC)C1=NC(C)(C)Cc2ccccc21.O=[N+]([O-])c1cc([N+](=O)[O-])c(O)c([N+](=O)[O-])c1", "note": "(stereo not drawn)", "activation": "inactive: 1.59%"},
      {"molecule": "N#Cc1ccc(C(=O)NCC2(N3CCCCC3)CCCCC2)cc1", "activation": "inactive: 0.736%"},
      {"molecule": "O=C(O)c1cccc(Nc2c([N+](=O)[O-])cc([N+](=O)[O-])cc2[N+](=O)[O-])c1", "activation": "inactive: -11.4%"},
      {"molecule": "O=C(OC1CN2CCC1CC2)C1c2ccccc2C=Cc2ccccc21", "note": "(stereo not drawn)", "activation": "inactive: 1.26%"},
      {"molecule": "N/C(=N\\O)c1c(N)no[n+]1[O-]", "activation": "inactive: -2.94%"},
      {"molecule": "CCOC(=O)N1CCC(Nc2ccc(C)cc2)CC1", "activation": "inactive: -0.795% [at 11.5 µM]"},
      {"molecule": "COc1ccc(C(=O)NCC2(N3CCOCC3)CCCCC2)cc1OC", "activation": "inactive: 3.19%"},
      {"molecule": "CCCOc1ccc(C)cc1CN(CCCl)CCCl", "activation": "inactive: -0.685%"},
      {"molecule": "CN1CCC(Nc2ccc(Cl)cc2)CC1", "activation": "inactive: 5.3%"},
      {"molecule": "CCC(CO)(C(=O)OC1CN2CCC1CC2)c1ccccc1", "note": "(stereo not drawn)", "activation": "inactive: -0.759%"},
      {"molecule": "COc1cc(OC)cc(C(=O)NCC2(N3CCOCC3)CCCCC2)c1", "activation": "inactive: 1.05%"},
      {"molecule": "CC(C)(C)OC(=O)N1CCC(Nc2ccccc2)CC1", "activation": "inactive: 5.67%"},
      {"molecule": "CN1CCC(Nc2ccc(F)c(Cl)c2)CC1", "activation": "inactive: 2.03% [at 11.5 µM]"},
      {"molecule": "CCOc1ncccc1C(=O)NCC1(N2CCOCC2)CCCCC1", "activation": "inactive: -0.156%"},
      {"molecule": "CCN1CCC(Nc2cccc(F)c2)CC1", "activation": "inactive: 0.933%"},
      {"molecule": "Fc1ccccc1NC1CCN(Cc2ccccc2)CC1", "activation": "inactive: 4.03%"},
      {"molecule": "Cc1ccc(OCC(C)C)c(CN(CCCl)CCCl)c1", "activation": "inactive: -0.436%"},
      {"molecule": "CCOC(=O)N1CCC(Nc2cccc(C)c2)CC1", "activation": "inactive: 5.16%"},
      {"molecule": "COc1ccc(NC2CCN(CCc3ccccc3)CC2)c(OC)c1", "activation": "inactive: 2.7%"},
      {"molecule": "CCOC(=O)N1CCC(Nc2ccc(F)cc2)CC1", "activation": "inactive: -19.1%"},
      {"molecule": "O=C(NCC1(N2CCCCC2)CCCCC1)c1ccc(F)cc1", "activation": "inactive: 0.0454%"},
      {"molecule": "CCOc1ccc(C)cc1CN(CCCl)CCCl", "activation": "inactive: -0.929%"},
      {"molecule": "CCOC(=O)N1CCC(Nc2ccc(OC)cc2)CC1", "activation": "inactive: -0.149%"},
      {"molecule": "O=C(OC1CN2CCC1CC2)C1c2ccccc2Oc2ccccc21", "note": "(stereo not drawn)", "activation": "inactive: -0.1%"},
      {"molecule": "N#CC1(Nc2ccccc2)CCN(Cc2ccccc2)CC1", "activation": "inactive: -2.58%"},
      {"molecule": "O=C(NCC1(N2CCOCC2)CCCCC1)c1cc2ccccc2o1", "activation": "inactive: -5.91%"},
      {"molecule": "CSc1ccccc1C(=O)NCC1(N2CCCCC2)CCCCC1", "activation": "inactive: 1.58%"},
      {"molecule": "O=C(NCC1(N2CCCCC2)CCCCC1)c1ccc(=O)[nH]c1", "activation": "inactive: 1.37%"},
      {"molecule": "COc1ccc(C(=O)NCC2(N3CCCCC3)CCCCC2)c(OC)c1OC", "activation": "inactive: -3.38%"},
      {"molecule": "COc1ccc(C(=O)NCC2(N3CCCCC3)CCCCC2)cc1", "activation": "inactive: -3.65%"},
      {"molecule": "COc1ccc2c(c1O)-c1c(O)c(OC)cc3c1[C@H](C2)[N+](C)(C)CC3.O=[N+]([O-])c1cc([N+](=O)[O-])c([O-])c([N+](=O)[O-])c1[O-]", "activation": "inactive: -3.59%"},
      {"molecule": "O=C(OC1CN2CCC1CC2)c1ccc([N+](=O)[O-])cc1", "note": "(stereo not drawn)", "activation": "inactive: 0.882%"},
      {"molecule": "O=[N+]([O-])c1cc([N+](=O)[O-])c(OC2CCCCC2O)c([N+](=O)[O-])c1", "note": "(stereo not drawn)", "activation": "inactive: 0.665% [at 11.5 µM]"},
      {"molecule": "CN(C)c1cccc(C(=O)NCC2(N3CCCCC3)CCCCC2)c1", "activation": "inactive: 0.0217%"},
      {"molecule": "COc1ccc(CN(CCCl)CCCl)cc1Cl", "activation": "inactive: 6.38%"},
      {"molecule": "CC(C)c1ccc(NC2CCN(C(=O)OC(C)(C)C)CC2)cc1", "activation": "inactive: 0.887%"},
      {"molecule": "CN1CCN(CCOC(=O)C(O)(c2ccccc2)c2ccccc2)CC1", "activation": "inactive: -2.88%"},
      {"molecule": "COc1ccc(NC2CCN(C(=O)OC(C)(C)C)CC2)cc1", "activation": "inactive: 1.68%"},
      {"molecule": "COc1cc(C(=O)NCC2(N3CCCCC3)CCCCC2)ccc1OC(F)F", "activation": "inactive: 0.591%"},
      {"molecule": "O=C(NCC1(N2CCOCC2)CCCCC1)c1cc(=O)[nH]c2ccccc12", "activation": "inactive: -11.7%"},
      {"molecule": "O=C(NCC1(N2CCCCC2)CCCCC1)c1cccc(C(F)(F)F)c1", "activation": "inactive: 0.525%"},
      {"molecule": "O=[N+]([O-])c1cc([N+](=O)[O-])c(NCC2CCS(=O)(=O)C2)c([N+](=O)[O-])c1", "note": "(stereo not drawn)", "activation": "inactive: 7.18%"},
      {"molecule": "O=C(NCC1(N2CCCCC2)CCCCC1)c1cccc([N+](=O)[O-])c1", "activation": "inactive: -4.09%"},
      {"molecule": "N#CC1(Nc2ccccc2)CCN(CCc2ccccc2)CC1", "activation": "inactive: 4.05%"},
      {"molecule": "CCN1CCC(Nc2ccc(Cl)cc2)CC1", "activation": "inactive: 5.12%"},
      {"molecule": "O=C(NCC1(N2CCCCC2)CCCCC1)c1ccc(OC(F)F)cc1", "activation": "inactive: 5.11%"}
    ]}
  ]
}
